Earlier results in patent publication US20130142868A1 (priority 2010, published 2013).
Some compounds may have been tested in ways that are not shown here.

Details: cited from earlier work

CCC(=O)N(c1ccccc1)C1CCN(CCc2ccccc2)CC1
log P: 3.9
